Laboratory results from publication PMC3539823 (Journal of medicinal chemistry, 2012).

Tested on: P493 human lymphoma B cells
Test: P493 cell proliferation assay
Format: cell-based
Conditions: P493-6, read-out: IC50 (growth of P493 cells)

Nc1nnc(CCSCCc2nnc(NC(=O)Cc3ccccc3)s2)s1 [Compound 6, N-(5-{2-[2-(5-Amino-[1,3,4]thiadiazol-2-yl)-ethylsulfanyl]-ethyl}-[1,3,4]thiadiazol-2-yl)-2-phenyl-acetamide]
IC50: ~20 µM
